Literature values, collected in patent publication US20260345598A1 (INTRA-CELLULAR THERAPIES, INC., priority 2023, published 2026).

Target: D1 receptor
Conditions: read-out: D1 receptor affinity Ki; cited from earlier work

Q: Which Ki does the source give for `CN1CCN2c3c(cccc31)[C@@H]1CN(CCCC(=O)c3ccc(F)cc3)CC[C@@H]12` [Lumateperone, 4-((6bR,10aS)-3-methyl-2,3,6b,9,10,10a-hexahydro-1H-pyrido[3′,4′: 4,5]pyrrolo[1,2,3-de]quinoxalin-8 (7H)-yl)-1-(4-fluorophenyl)-1-butanone] here?
A: Its Ki is 52 nM.
